In ChEMBL document CHEMBL1955733, “Optimization of 5-pyridazin-3-one phenoxypropylamines as potent, selective histamine H₃ receptor antagonists with potent cognition enhancing activity” (J Med Chem, 2012) one finds EC50 and Ki data, which are given here for two compounds.

Chains of the proteins cited; added tags and fusions are not shown. Lines headed by an entry give the natural chain unless they say otherwise; changes in a name come on top.
UniProt Q9Y5N1: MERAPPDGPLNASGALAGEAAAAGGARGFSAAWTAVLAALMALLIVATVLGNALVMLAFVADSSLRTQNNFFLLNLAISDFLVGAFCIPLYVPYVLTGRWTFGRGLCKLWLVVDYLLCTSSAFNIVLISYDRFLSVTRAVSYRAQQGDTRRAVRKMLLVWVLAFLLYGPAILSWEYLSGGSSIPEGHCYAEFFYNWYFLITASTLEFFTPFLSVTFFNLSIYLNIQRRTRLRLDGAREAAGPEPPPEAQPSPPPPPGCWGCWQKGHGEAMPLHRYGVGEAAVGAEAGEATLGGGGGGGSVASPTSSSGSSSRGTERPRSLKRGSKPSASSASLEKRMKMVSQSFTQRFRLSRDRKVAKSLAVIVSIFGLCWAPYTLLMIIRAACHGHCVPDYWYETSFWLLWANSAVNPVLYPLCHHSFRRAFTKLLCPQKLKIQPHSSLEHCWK
UniProt Q9QYN8: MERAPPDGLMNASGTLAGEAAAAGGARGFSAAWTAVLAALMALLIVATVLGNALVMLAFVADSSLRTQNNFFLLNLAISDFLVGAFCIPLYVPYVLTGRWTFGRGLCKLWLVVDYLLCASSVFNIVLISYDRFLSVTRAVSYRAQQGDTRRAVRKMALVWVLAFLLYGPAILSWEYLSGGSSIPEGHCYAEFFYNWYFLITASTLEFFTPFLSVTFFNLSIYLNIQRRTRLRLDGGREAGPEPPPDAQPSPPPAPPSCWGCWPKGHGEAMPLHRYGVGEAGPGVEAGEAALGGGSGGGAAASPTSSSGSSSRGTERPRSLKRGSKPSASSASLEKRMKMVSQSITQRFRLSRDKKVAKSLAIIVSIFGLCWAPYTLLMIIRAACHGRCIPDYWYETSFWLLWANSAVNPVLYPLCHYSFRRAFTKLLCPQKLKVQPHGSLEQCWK

In assay [1] the target is T1, Histamine H3 receptor (Homo sapiens, UniProt Q9Y5N1).
Assay [2] has as its target T2, Histamine H3 receptor (Rattus norvegicus, UniProt Q9QYN8).
Assay [3] has as its target T2, Histamine H3 receptor. As to the kind of experiment: Displacement of [3H]NAMH from rat cloned […] expressed in CHO cells. The class given is cell-based.
For assay [4], the target named is T1, Histamine H3 receptor. As to the kind of experiment: Displacement of [3H]NAMH from human cloned […] expressed in CHO cells. Format: cell-based.

As for `C[C@@H]1CCCN1CCCOc1ccc(-c2cnn(-c3ccccn3)c(=O)c2)cc1`, the values for the EC50 in assay [1] and in assay [2] were 1.1 nM and 1.6 nM, respectively.

As to `C[C@H]1CCCN1CCCOc1ccc(-c2cnn(-c3ccccn3)c(=O)c2)cc1`, the Ki in assay [3] stood at 29 nM; in assay [4] it was 11 nM.
